Test results published in paper PMC2812024 (Journal of medicinal chemistry, 2008).

Target: δ-opioid receptors (Rattus norvegicus, UniProt P33533)
Experiment: Competitive binding, rat brain P2 synaptosomal membranes, [3H]deltorphin II
Design: species or system Sprague-Dawley rats
Conditions: read-out: KD of radioligand; radioligand for δ-opioid receptors

Substance: H-Tyr-D-Ala-Phe-Asp-Val-Val-Gly-NH2 (YAFDVVG) [[^3H]deltorphin II]
- Kd: 1.4 nM
